# Data taken from patent US4650801A, “Anti-cancer compositions for delivering 5-fluorouracil” (Taiho Pharmaceutical Company, Ltd., priority 1978, dated 1987).
# Values joined by “and” are separate entries in the source; they are usually repeats but may differ in a detail not shown here. Identical values can stand only once. Like-named read-outs stand apart in the source and are kept apart here.
# System: sarcoma 180
# Format: in vivo
# Protocol: The anti-cancer compositions of this invention are tested in mice by the following methods to determine acute toxicity, anti-cancer effect and therapeutic index
# Male mice of ICR strain weighing 22±1 g are used, 5 mice in each group. A 5-fluorouracil (a) and uracil derivative (b) in the proportions listed in Tables 1-16 are suspended in a 5% solution of gum arabic to prepare a suspension, which is forcibly orally administered to each mouse through a tube at a dose of 1 ml/100 g. Over the following period of three weeks the mice are checked every day for poisoning, body weight and mortality. The LD50 is determined according to the up-and-down method 3 weeks after the administration.
# Tissues of sarcoma 180, 2×10^6, are subcutaneously transplanted in the back of male mice of ICR strain (6 mice in each group). A 5-fluorouracil (a) and uracil derivative (b) in the proportions listed in Tables 1-16 are suspended in a 5% solution of gum arabic to prepare a suspension. Twenty-four hours after the transplantation and during the following seven consecutive days the suspension is orally given to the animal once every day.
# The LD50 and ED50 values obtained above are used to determine the therapeutic index (LD50 /ED50).
structure (smiles),measurement,setting,value
"O=c1[nH]c(=O)n(C2CCCO2)cc1F (centres unmarked) [Compound 5, 1-(2-Tetrahydrofuryl)-5-fluorouracil]",Therapeutic Index (LD50/ED50),"(b) = 1(2-Tetrahydrofuryl)uracil, (b)/(a) mol ratio 1",6.8
same,Therapeutic Index (LD50/ED50),"(b) = 1(2-Tetrahydrofuryl)uracil, (b)/(a) mol ratio 2",14.9
same,Therapeutic Index (LD50/ED50),"(b) = 1(2-Tetrahydrofuryl)uracil, (b)/(a) mol ratio 10",11.1
same,Therapeutic Index (LD50/ED50),"(b) = 1Acetyluracil, (b)/(a) mol ratio 1",10.2
same,Therapeutic Index (LD50/ED50),"(b) = 1Acetyluracil, (b)/(a) mol ratio 2",10.7
same,Therapeutic Index (LD50/ED50),"(b) = 1Acetyluracil, (b)/(a) mol ratio 5",8.9
same,Therapeutic Index (LD50/ED50),"(b) = 1Cyclohexylcarbamoyluracil, (b)/(a) mol ratio 0.5",6.8
same,Therapeutic Index (LD50/ED50),"(b) = 1Cyclohexylcarbamoyluracil, (b)/(a) mol ratio 2",11.2
same,Therapeutic Index (LD50/ED50),"(b) = 1Cyclohexylcarbamoyluracil, (b)/(a) mol ratio 5",11.9
same,Therapeutic Index (LD50/ED50),"(b) = 1n-Hexylcarbamoyluracil, (b)/(a) mol ratio 0.5",7.8
same,Therapeutic Index (LD50/ED50),"(b) = 1n-Hexylcarbamoyluracil, (b)/(a) mol ratio 2",10.3
same,Therapeutic Index (LD50/ED50),"(b) = 1n-Hexylcarbamoyluracil, (b)/(a) mol ratio 10",11.3
same,Therapeutic Index (LD50/ED50),"(b) = 2'-Deoxycytidine, (b)/(a) mol ratio 1",8.6
same,Therapeutic Index (LD50/ED50),"(b) = 2'-Deoxycytidine, (b)/(a) mol ratio 2",11.5
same,Therapeutic Index (LD50/ED50),"(b) = 2'-Deoxycytidine, (b)/(a) mol ratio 20",8.6
same,Therapeutic Index (LD50/ED50),"(b) = 2'-Deoxyuridine, (b)/(a) mol ratio 0.5",9.9
same,Therapeutic Index (LD50/ED50),"(b) = 2'-Deoxyuridine, (b)/(a) mol ratio 2",17.2
same,Therapeutic Index (LD50/ED50),"(b) = 2'-Deoxyuridine, (b)/(a) mol ratio 10",16.8
same,Therapeutic Index (LD50/ED50),"(b) = 3Benzoyluracil, (b)/(a) mol ratio 1",7.6
same,Therapeutic Index (LD50/ED50),"(b) = 3Benzoyluracil, (b)/(a) mol ratio 2",16.8
same,Therapeutic Index (LD50/ED50),"(b) = 5Bromo-2'-deoxyuridine, (b)/(a) mol ratio 1",10.5
same,Therapeutic Index (LD50/ED50),"(b) = 5Bromo-2'-deoxyuridine, (b)/(a) mol ratio 2",10.5
same,Therapeutic Index (LD50/ED50),"(b) = 5Bromo-2'-deoxyuridine, (b)/(a) mol ratio 10",12.9
same,Therapeutic Index (LD50/ED50),"(b) = 5Bromouracil, (b)/(a) mol ratio 1",10.4
same,Therapeutic Index (LD50/ED50),"(b) = 5Bromouracil, (b)/(a) mol ratio 2",14.6
same,Therapeutic Index (LD50/ED50),"(b) = 5Iodouracil, (b)/(a) mol ratio 1",9.4
same,Therapeutic Index (LD50/ED50),"(b) = 5Iodouracil, (b)/(a) mol ratio 2",9.9
same,Therapeutic Index (LD50/ED50),"(b) = 5Iodouracil, (b)/(a) mol ratio 5",9.3
same,Therapeutic Index (LD50/ED50),"(b) = Cytidine, (b)/(a) mol ratio 1",8.9
same,Therapeutic Index (LD50/ED50),"(b) = Cytidine, (b)/(a) mol ratio 2",11.4
same,Therapeutic Index (LD50/ED50),"(b) = Cytidine, (b)/(a) mol ratio 20",9.5
same,Therapeutic Index (LD50/ED50),"(b) = Cytosine, (b)/(a) mol ratio 1",8.1
same,Therapeutic Index (LD50/ED50),"(b) = Cytosine, (b)/(a) mol ratio 2",12.4
same,Therapeutic Index (LD50/ED50),"(b) = Cytosine, (b)/(a) mol ratio 20",10.2
same,Therapeutic Index (LD50/ED50),"(b) = Orotic acid, (b)/(a) mol ratio 1",7.1
same,Therapeutic Index (LD50/ED50),"(b) = Orotic acid, (b)/(a) mol ratio 2",11.1
same,Therapeutic Index (LD50/ED50),"(b) = Orotic acid, (b)/(a) mol ratio 20",11.3
same,Therapeutic Index (LD50/ED50),"(b) = Thymidine, (b)/(a) mol ratio 2",6.8
same,Therapeutic Index (LD50/ED50),"(b) = Thymidine, (b)/(a) mol ratio 5",10.1
same,Therapeutic Index (LD50/ED50),"(b) = Thymidine, (b)/(a) mol ratio 10",8.5
same,Therapeutic Index (LD50/ED50),"(b) = Thymine, (b)/(a) mol ratio 1",8.1
same,Therapeutic Index (LD50/ED50),"(b) = Thymine, (b)/(a) mol ratio 2",10.1
same,Therapeutic Index (LD50/ED50),"(b) = Thymine, (b)/(a) mol ratio 10",13.5
same,Therapeutic Index (LD50/ED50),"(b) = Uridine, (b)/(a) mol ratio 0.5",6.2
same,Therapeutic Index (LD50/ED50),"(b) = Uridine, (b)/(a) mol ratio 2",11.5
same,Therapeutic Index (LD50/ED50),"(b) = Uridine, (b)/(a) mol ratio 10",14.7
same,Therapeutic Index (LD50/ED50),(b)/(a) mol ratio 0 (alone),5.9 and 6.5
